Target: hERG ion channels (Homo sapiens (Human), UniProt Q12809)
Assay: Inhibition activity test on hERG ion channels in HEK293 cells (cardiac safety, patch clamp)
Conditions: 100 nM, positive control
Method: This experiment is used as a cardiac safety test of compound.
The reagents are purchased from Sigma (St. Louis, MO) except NaOH and KOH for acid-base titration. Final concentrations of tested solutions are prepared on the testing day and dissolved in extracellular fluid. […] All the test solutions and the control solutions contain 0.3% DMSO. Intracellular fluid (mM) contains: K Aspartate, 130; MgCl2, 5; EGTA 5; HEPES, 10; Tris-ATP 4; pH 7.2 (KOH titration).
Cells: all experiments is performed at room temperature. Each cell itself is taken as the corresponding control.
Compounds are all perfused using a perfusion system that utilizes the gravity. At least two cells are tested per concentration. After current stabilization (or 5 minutes), the change in current magnitude before and after the use of the compound is compared to calculate the blocking effect of the compound. […]
Electrophysiology: Transfer the Cells to the perfusion tank and perfuse with extracellular fluid. […] The intracellular fluid is stored in small quantities in portions in a −80° C. refrigerator, and melt on the day of the experiment. […]
This process is repeated every 20 seconds. […] The maximum tail current triggered by the second square wave is detected, and when the current is stabilized, the test compound is perfused. The strength of the block is calculated when the response is stabilized.

Amino acid sequences for entries named in this document (tags omitted). A change or cut given only in a name is not applied to a line headed by its entry.
UniProt Q12809: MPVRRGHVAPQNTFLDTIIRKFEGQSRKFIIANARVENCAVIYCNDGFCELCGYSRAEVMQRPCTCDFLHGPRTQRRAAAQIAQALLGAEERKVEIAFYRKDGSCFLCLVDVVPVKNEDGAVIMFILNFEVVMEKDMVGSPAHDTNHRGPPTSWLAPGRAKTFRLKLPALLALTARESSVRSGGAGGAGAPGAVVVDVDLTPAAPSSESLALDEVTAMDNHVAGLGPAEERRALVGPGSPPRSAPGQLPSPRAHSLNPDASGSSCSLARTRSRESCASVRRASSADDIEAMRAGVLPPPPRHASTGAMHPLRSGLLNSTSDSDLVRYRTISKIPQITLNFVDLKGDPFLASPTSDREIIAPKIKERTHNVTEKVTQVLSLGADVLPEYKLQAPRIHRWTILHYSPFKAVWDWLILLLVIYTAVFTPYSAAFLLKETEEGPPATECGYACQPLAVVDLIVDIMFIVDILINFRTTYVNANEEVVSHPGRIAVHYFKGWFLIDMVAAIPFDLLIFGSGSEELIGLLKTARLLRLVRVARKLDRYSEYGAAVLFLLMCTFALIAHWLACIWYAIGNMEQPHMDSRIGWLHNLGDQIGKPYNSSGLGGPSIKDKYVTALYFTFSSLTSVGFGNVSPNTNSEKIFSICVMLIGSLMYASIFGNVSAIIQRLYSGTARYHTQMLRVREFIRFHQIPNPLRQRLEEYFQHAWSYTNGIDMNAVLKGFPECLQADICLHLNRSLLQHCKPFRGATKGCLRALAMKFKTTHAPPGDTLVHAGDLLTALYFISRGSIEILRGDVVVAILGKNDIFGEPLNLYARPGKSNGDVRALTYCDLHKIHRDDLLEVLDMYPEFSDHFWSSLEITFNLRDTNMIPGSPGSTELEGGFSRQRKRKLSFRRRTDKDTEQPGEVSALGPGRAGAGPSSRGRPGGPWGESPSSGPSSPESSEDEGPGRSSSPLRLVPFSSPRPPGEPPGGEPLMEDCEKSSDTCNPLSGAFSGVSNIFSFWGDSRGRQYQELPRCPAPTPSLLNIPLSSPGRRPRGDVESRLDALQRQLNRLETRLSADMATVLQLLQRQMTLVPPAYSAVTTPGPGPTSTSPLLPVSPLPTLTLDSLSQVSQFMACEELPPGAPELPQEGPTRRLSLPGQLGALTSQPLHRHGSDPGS

## COc1cc(N)c(Cl)cc1C(=O)NC1CCN(CCCOc2ccc(F)cc2)CC1OC (stereo not shown) [Cisapride, reference compound]
  hERG blocking rate: about 90%

— patent publication US20230303497A1, “BENZYLAMINE OR BENZYL ALCOHOL DERIVATIVE AND USES THEREOF” (CHENGDU HYPERWAY PHARMACEUTICALS CO., LTD, priority 2020, published 2023)
